Data on two compounds can be found in patent publication US9656017B2, “Infusion delivery devices and methods” (priority 2014, dated 2017).

The conditions of series [1]: subcutaneous doses 30 μg, 60 μg and 90 μg (FIG. 2); cited from earlier work.
For series [2] the following is noted: cited from earlier work.
Series [3] can be described thus: 24-hour plasma profiles of endogenous insulin and amylin in healthy adults, basal/bolus AUC analysis. The class given is in vivo, human. The note with it: endogenous hormone, based upon AUCs, unadjusted. The text has this:
This difference in bolus/basal ratios was quantified by estimating the AUCs of the basal and bolus components, which would reflect the 24-hour hormone exposures attributable to these components. FIG. 6 and FIG. 7 show this basal/bolus allocation for amylin and insulin when the lowest observed levels of endogenous hormone are used as the upper boundary of the basal area.
Comparing AUCs results in the discovery that there is a striking difference between hormones with respect to the importance of bolus exposure compared to basal exposure, as summarized in Table 1. Measured as a ratio of bolus-to-basal exposure, the insulin bolus component is about three times as important as that of amylin. Measured as percentages of total daily hormone exposures, the “pancreatic insulin pump” secretes about twice as much insulin during mealtime boluses compared to basal, whereas the “pancreatic amylin pump” is set to the reverse ratio. See the example in Table 1.
Note that these calculations are based upon the specific clinical study shown in FIG. 5, and so the quantities presented here are used to illustrate the difference between insulin and amylin plasma levels. […]
It is noted with regard to Table 1 that both the plasma insulin and amylin were measured with immunometric assays that are normally highly specific but are subject to cross reactions with other analytes that contain both binding sites. […]

Molecules are shown by their SMILES.

On to `CC[C@H](C)[C@H](NC(=O)[C@@H]1CCCN1C(=O)CNC(=O)[C@H](Cc1ccccc1)NC(=O)[C@H](CC(N)=O)NC(=O)[C@H](CC(N)=O)NC(=O)[C@H](CO)NC(=O)[C@H](CO)NC(=O)[C@H](Cc1c[nH]cn1)NC(=O)[C@@H](NC(=O)[C@H](CC(C)C)NC(=O)[C@H](Cc1ccccc1)NC(=O)[C@H](CC(N)=O)NC(=O)[C@H](C)NC(=O)[C@H](CC(C)C)NC(=O)[C@H](CCCNC(=N)N)NC(=O)[C@H](CCC(N)=O)NC(=O)[C@@H](NC(=O)[C@H](C)NC(=O)[C@@H]1CSSC[C@H](NC(=O)[C@@H](N)CCCCN)C(=O)N[C@@H](CC(N)=O)C(=O)N[C@@H]([C@@H](C)O)C(=O)N[C@@H](C)C(=O)N[C@@H]([C@@H](C)O)C(=O)N1)[C@@H](C)O)C(C)C)C(=O)N[C@@H](CC(C)C)C(=O)N1CCC[C@H]1C(=O)N1CCC[C@H]1C(=O)N[C@H](C(=O)N[C@@H](CC(N)=O)C(=O)N[C@H](C(=O)NCC(=O)N[C@@H](CO)C(=O)N[C@@H](CC(N)=O)C(=O)N[C@H](C(=O)N[C@@H](Cc1ccc(O)cc1)C(N)=O)[C@@H](C)O)C(C)C)[C@@H](C)O` [pramlintide, 25,28,29Pro-h-amylin], for which the “clearance from plasma after injection” value in series [1] is listed as “largely cleared plasma within three hours”. The SC half-life in series [2] (subcutaneous) is 48 min.

For the compound `CC[C@H](C)[C@H](NC(=O)[C@H](C)NC(=O)CNC(=O)[C@H](Cc1ccccc1)NC(=O)[C@H](CC(N)=O)NC(=O)[C@H](CC(N)=O)NC(=O)[C@H](CO)NC(=O)[C@H](CO)NC(=O)[C@H](Cc1c[nH]cn1)NC(=O)[C@@H](NC(=O)[C@H](CC(C)C)NC(=O)[C@H](Cc1ccccc1)NC(=O)[C@H](CC(N)=O)NC(=O)[C@H](C)NC(=O)[C@H](CC(C)C)NC(=O)[C@H](CCCNC(=N)N)NC(=O)[C@H](CCC(N)=O)NC(=O)[C@@H](NC(=O)[C@H](C)NC(=O)[C@@H]1CSSC[C@H](NC(=O)[C@@H](N)CCCCN)C(=O)N[C@@H](CC(N)=O)C(=O)N[C@@H]([C@@H](C)O)C(=O)N[C@@H](C)C(=O)N[C@@H]([C@@H](C)O)C(=O)N1)[C@@H](C)O)C(C)C)C(=O)N[C@@H](CC(C)C)C(=O)N[C@@H](CO)C(=O)N[C@@H](CO)C(=O)N[C@H](C(=O)N[C@@H](CC(N)=O)C(=O)N[C@H](C(=O)NCC(=O)N[C@@H](CO)C(=O)N[C@@H](CC(N)=O)C(=O)N[C@H](C(=O)N[C@@H](Cc1ccc(O)cc1)C(N)=O)[C@@H](C)O)C(C)C)[C@@H](C)O` [Amylin], the Bioavailability in series [2] (subcutaneous (SC) injections) is reported as 35%. Moreover, the “Basal Level” value in series [3] stood at 9.3 pM.
